In patent publication US11229664B2, “Treatment of myelosuppression” (priority 2012, dated 2022):
Like-named read-outs stand apart in the source and are kept apart here.

O=C1[O][Pt]2([NH][C@@H]3CCCC[C@H]3[NH]2)[O]C1=O [Oxaliplatin, reference compound]
Average Weight (Day 4): 20.40 g
Average Weight (Day 8): 20.65 g
% Weight Loss or Gain (Day 11): −3.36%
Average Weight (Day 18): 20.45 g
